This is a selection; strong and weak results do not stand in their true shares. Activity calls are given as the source filed them.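 The calls were made as follows: active = compounds whose inhibition of the agonist-driven luminescence signal at 20 µM reaches about 50% (limit read from the data); inactive = the rest.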
target: C-C chemokine receptor type 6 (Homo sapiens) (UniProt P51684); assay: blockers of CCL20-driven beta-arrestin recruitment to CCR6 – cell-based, CHO-K1, luminescence, uHTS, primary screen (AID 493098); conditions: CHO-K1 CCR6 PathHunter beta-arrestin, CCL20-stimulated, at 20 µM, stronger effect = higher value;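 also: cells stimulated with CCL20 at 14 nM final; plate controls were DMSO with CCL20 for no effect and DMSO without agonist for full effect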

Sequences of proteins named here, by UniProt entry; tags and fusion partners are left off.
UniProt P51684, whole entry: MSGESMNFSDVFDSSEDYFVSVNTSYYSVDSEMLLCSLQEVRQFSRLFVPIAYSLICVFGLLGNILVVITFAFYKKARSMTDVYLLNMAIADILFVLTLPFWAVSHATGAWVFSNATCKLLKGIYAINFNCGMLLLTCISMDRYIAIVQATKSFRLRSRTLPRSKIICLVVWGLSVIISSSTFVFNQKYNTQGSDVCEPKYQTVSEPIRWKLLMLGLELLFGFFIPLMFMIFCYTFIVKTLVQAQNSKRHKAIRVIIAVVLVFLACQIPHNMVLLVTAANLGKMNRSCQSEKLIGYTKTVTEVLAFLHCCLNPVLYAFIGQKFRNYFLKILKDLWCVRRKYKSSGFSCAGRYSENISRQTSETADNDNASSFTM

Compound | inhibition
COc1ccccc1OP(C)(=O)Nc1c(C)cccc1C (stereo unspecified) | inactive: 5.48%
CN1CCCCC1COC(=O)C1(O)c2ccccc2CCc2ccccc21 (stereo unspecified) | inactive: 11.7%
CCCOc1ccc(NP(C)(=O)Oc2ccc(Cl)cc2)cc1 (stereo unspecified) | inactive: 16.2%
CP(=O)(Nc1ccc(SC(F)(F)F)cc1)Oc1ccccc1 (stereo unspecified) | inactive: 4.75%
CC1=C2N=C(C=C3N=C(C(C)=C4[N-][C@@](C)([C@@H]5N=C1[C@](C)(CCC(=O)NC[C@@H](C)OP(=O)([O-])O[C@H]1[C@@H](O)[C@@H](n6cnc7cc(C)c(C)cc76)O[C@@H]1CO)[C@H]5CC(N)=O)[C@@](C)(CC(N)=O)[C@@H]4CCC(N)=O)[C@@](C)(CC(N)=O)[C@@H]3CCC(N)=O)C(C)(C)[C@@H]2CCC(N)=O.[C-]#N.[Co+3] | inactive: 14.4%
O=[N+]([O-])c1cc([N+](=O)[O-])c(Nc2nnnn2CCO)c([N+](=O)[O-])c1 | inactive: 46.8%
CCOC(=O)C(CC)C1=NC(C)(C)Cc2ccccc21.O=[N+]([O-])c1cc([N+](=O)[O-])c(O)c([N+](=O)[O-])c1 (stereo unspecified) | inactive: 32.2%
O=[N+]([O-])c1cc([N+](=O)[O-])c(-c2cnn(-c3ccccc3)c2)c([N+](=O)[O-])c1 | inactive: -30.4%
Cc1nc2ccc3ccccc3c2s1.O=[N+]([O-])c1cc([N+](=O)[O-])c(O)c([N+](=O)[O-])c1 | inactive: 31%
O=[N+]([O-])c1cc([N+](=O)[O-])c(-n2nnc3ccccc32)c([N+](=O)[O-])c1 | inactive: 14.7%
Cc1cc(C)cc(OP(C)(=O)Nc2ccccn2)c1 (stereo unspecified) | inactive: -6.63%
CP(=O)(Nc1cccc(Br)c1)Oc1ccccc1 (stereo unspecified) | inactive: -10.6%
Cc1ccc(C)c(NP(C)(=O)Oc2ccccc2)c1 (stereo unspecified) | inactive: 3.18%
COc1ccccc1OP(C)(=O)Nc1cccc(Br)c1 (stereo unspecified) | inactive: 8.38%
Cc1cc(C)cc(OP(C)(=O)Nc2ccc(C)cc2C)c1 (stereo unspecified) | inactive: 14.1%
CCOC(=O)c1ccc(NP(C)(=O)Oc2cc(C)cc(C)c2)cc1 (stereo unspecified) | inactive: 15.6%
CC1=NCCc2c1[nH]c1ccccc21.O=[N+]([O-])c1cc([N+](=O)[O-])c(O)c([N+](=O)[O-])c1 | inactive: 10.4%
O=C(O)c1cccc(Nc2c([N+](=O)[O-])cc([N+](=O)[O-])cc2[N+](=O)[O-])c1 | active: 59.5%
CCOC(=O)c1ccc(NP(C)(=O)Oc2ccccc2)cc1 (stereo unspecified) | inactive: 5.47%

Compound | inhibition
COc1ccccc1OP(C)(=O)Nc1ccc(C)cc1 (stereo unspecified) | inactive: -8.08%
Cc1ccc(NP(C)(=O)Oc2ccccc2)c(C)c1 (stereo unspecified) | inactive: 12.1%
COc1ccccc1OP(C)(=O)Nc1cc(Cl)ccc1C (stereo unspecified) | inactive: -9.7%
COc1ccc(OP(C)(=O)Nc2cccc(F)c2)cc1 (stereo unspecified) | inactive: 13.5%
Cc1cc(C)cc(OP(C)(N)=O)c1 (stereo unspecified) | inactive: -14.6%
O=[N+]([O-])c1cc([N+](=O)[O-])c(Nc2cccnc2)c([N+](=O)[O-])c1 | inactive: 45.7%
CC(C)(C)c1ccc(OP(C)(=O)Nc2ccc(SC(F)(F)F)cc2)cc1 (stereo unspecified) | inactive: 7.73%
Cc1cccc(C)c1OP(C)(N)=O (stereo unspecified) | inactive: -4.58%
O=[N+]([O-])c1ccc2c(c1)C=Nc1ccccc1O2 | inactive: 9.76%
CCN(CC)CCCOC(=O)C(O)(c1ccccc1)c1ccccc1 | inactive: -7.09%
CCOP(C)(=S)SCC(=O)NC(C)C(=O)O (stereo unspecified) | inactive: -8.49%
CCOC(=O)c1ccc(NP(C)(=O)Oc2ccc(OC)cc2)cc1 (stereo unspecified) | inactive: 10.2%
O=[N+]([O-])c1cc([N+](=O)[O-])c(O)c([N+](=O)[O-])c1.c1ccc(Oc2ccncc2)cc1 | inactive: 17.6%
CP(=O)(Nc1ccccn1)Oc1ccc(Cl)cc1 (stereo unspecified) | inactive: -2.22%
Cc1cccc(C)c1OP(C)(=O)Nc1ccc(SC(F)(F)F)cc1 (stereo unspecified) | inactive: 14.2%
CP(=O)(Nc1ccc(SC(F)(F)F)cc1)Oc1ccc(Cl)cc1 (stereo unspecified) | inactive: 13.9%
CP(=O)(Oc1ccccc1)OC(c1ccccc1)C(F)(F)F (stereo unspecified) | inactive: 7.99%
CP(=O)(NC(=O)Nc1ccccc1)Oc1ccccc1 (stereo unspecified) | inactive: 2.17%
CCc1ccc(OP(C)(=O)N2CCN(c3ccc([N+](=O)[O-])cc3)CC2)cc1 (stereo unspecified) | inactive: 8.02%

Compound | inhibition
Cc1cc(C)cc(OP(C)(=O)Nc2ccc(SC(F)(F)F)cc2)c1 (stereo unspecified) | inactive: 9.84%
CP(=S)(Nn1cnnc1)Oc1ccccc1 (stereo unspecified) | inactive: 3.93%
COc1ccccc1OP(C)(=O)Nc1ccccc1 (stereo unspecified) | inactive: 7.56%
CP(=O)(Nc1ccccc1Br)Oc1ccccc1 (stereo unspecified) | inactive: 1.1%
Nc1ccc2c(ccc3cccnc32)n1.O=[N+]([O-])c1cc([N+](=O)[O-])c(O)c([N+](=O)[O-])c1 | inactive: 23.9%
CP(=O)(OC12CC3CC(CC(C3)C1)C2)OC12CC3CC(CC(C3)C1)C2 | inactive: 3.17%
CCOC(=O)c1ccc(NP(C)(=O)Oc2ccc(Cl)cc2)cc1 (stereo unspecified) | inactive: 1.01%
CP(=O)(Nc1ccc(Cl)cc1)Oc1ccc(F)cc1 (stereo unspecified) | inactive: -9.82%
COc1ccccc1OP(C)(=O)Nc1ccccc1Br (stereo unspecified) | inactive: 5.74%
CC(C)(C)c1ccc(OP(C)(=O)O)cc1 | inactive: 3.27%
CN(C)C(=O)c1c([N+](=O)[O-])cc([N+](=O)[O-])cc1[N+](=O)[O-] | inactive: -9.59%
CCN(CC)CC(O)COC(=O)C(O)(c1ccccc1)C1CCCCC1 (stereo unspecified) | inactive: -4.23%
COc1ccc(OP(C)(=O)Nc2ccc(Br)cc2)cc1 (stereo unspecified) | inactive: 1.82%
CP(=O)(Oc1ccccc1)N1CCOC1=O (stereo unspecified) | inactive: 17.2%
CCc1ccc(OP(C)(=O)Nc2cccnc2)cc1 (stereo unspecified) | inactive: 7.93%
COc1ccccc1OP(C)(=O)Nc1c(C)n(C)n(-c2ccccc2)c1=O (stereo unspecified) | inactive: -4.92%
O=C(OCCCN1CCCC1)C(O)(c1ccccc1)C1CCCCC1 (stereo unspecified) | inactive: -1.04%
Cc1c(NP(C)(=O)Oc2ccc(C(C)C)cc2)c(=O)n(-c2ccccc2)n1C (stereo unspecified) | inactive: 4.56%

Reference: PubChem BioAssay AID493098 (Sanford-Burnham Center for Chemical Genomics, 2011)
